Measured values taken from US20060292076A1, “Antimicrobial mediated ozone generation” (priority 2002, published 2006).

Experiment: Production of hydrogen peroxide by immunoglobulins and proteins under UV irradiation (Amplex Red assay)
Assay type: biochemical
Conditions: irradiation in PBS
Description: All assays were carried out in PBS (10 mM phosphate/160 mM sodium chloride, pH 7.4). Commercial protein solution samples were dialyzed into PBS as necessary. Amplex Red hydrogen peroxide assay kits (A-12212) were obtained from Molecular Probes.
Antibody/Protein Irradiation. Unless otherwise stated, the assay solution (100 μl, 6.7 μM protein in PBS, pH 7.4) was added to a glass vial, sealed with a screw-cap, and irradiated with either UV (312 nm, […] Fischer-Biotech transilluminator) or visible light.
Quantitative Assay for Hydrogen Peroxide. An aliquot (20 μl) from the protein solution was removed and added into a well of a 96-well microtiter plate (Costar) containing reaction buffer (80 μL). Working solution (100 μl/400 μM Amplex Red reagent ½ units/ml horseradish peroxidase) was then added, and the plate was incubated in the dark for 30 min. The fluorescence of the well components was then measured using a CytoFluor Multi well Plate Reader (Series 4000, PerSeptive Biosystems, Framingham, Mass.; Ex/Em: 530/580 nm). The hydrogen peroxide concentration was determined using a standard curve. All experiments were run in duplicate, and the rate is quoted as the mean of at least two measurements.

With “β2-microglobulin: member of the immunoglobulin superfamily” the “ability of non-immunoglobulin proteins to reduce ^1O2 / generate H2O2” value was “does not generate H2O2”, the “ability of non-immunoglobulin proteins to reduce ^1O2 / generate H2O2” value (listed as Human β2-microglobulin) was “does not generate H2O2” and the “ability of non-immunoglobulin proteins to reduce ^1O2 / generate H2O2” value (listed as β2-macroglobulin) was “does not generate hydrogen peroxide”.
